The values that follow come from ChEMBL document CHEMBL5352416, “Benzo[b]thiophene-2-carboxamides as novel opioid receptor agonists with potent analgesic effect and reduced constipation” (Eur J Med Chem, 2022).

In this experiment the test system is Mus musculus. Put plainly: Antinociceptive activity in thermal stimulated sc dosed C57BL/6 mouse measured at 30 to 180 mins by tail flick test. The settings on record: time 30-180 min. It is filed as functional.

For the compound `CN1CC[C@]23c4c5ccc(O)c4O[C@H]2[C@@H](O)C=C[C@H]3[C@H]1C5`, the Activity result is “Dose-Dependent Effect”.
